# Experimental data as given in PubChem BioAssay AID1321 (The Scripps Research Institute Molecular Screening Center, 2008).
# Chains of the proteins cited; added tags and fusions are not shown.
# UniProt P30291, whole entry K328M: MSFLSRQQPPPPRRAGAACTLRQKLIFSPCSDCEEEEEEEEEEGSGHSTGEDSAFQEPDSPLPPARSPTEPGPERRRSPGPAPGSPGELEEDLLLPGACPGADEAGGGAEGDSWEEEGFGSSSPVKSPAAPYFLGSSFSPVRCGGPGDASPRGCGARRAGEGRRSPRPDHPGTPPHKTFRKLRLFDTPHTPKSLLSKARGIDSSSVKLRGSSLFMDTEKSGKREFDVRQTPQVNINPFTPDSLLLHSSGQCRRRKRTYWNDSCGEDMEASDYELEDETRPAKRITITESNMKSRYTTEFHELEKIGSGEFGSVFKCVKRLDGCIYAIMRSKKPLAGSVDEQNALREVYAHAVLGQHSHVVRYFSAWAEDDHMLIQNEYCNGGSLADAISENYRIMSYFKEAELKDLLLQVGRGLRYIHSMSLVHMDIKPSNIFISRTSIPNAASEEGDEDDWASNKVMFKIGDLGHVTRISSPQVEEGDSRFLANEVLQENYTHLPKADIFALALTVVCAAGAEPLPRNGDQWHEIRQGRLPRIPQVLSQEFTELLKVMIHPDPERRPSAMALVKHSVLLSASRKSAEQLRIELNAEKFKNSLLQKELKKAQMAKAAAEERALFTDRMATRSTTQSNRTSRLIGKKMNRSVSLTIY
# This is a selection; strong and weak results do not stand in their true shares. The source made the active and inactive calls.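 How the source made its calls: active means activation above the mean of all tested compounds plus 3 SD, set per screening run (cut at about 8.8% in these data); inactive means the rest.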
# Target: Wee1-like protein kinase (Homo sapiens) (UniProt P30291)
# Test: Wee1 degradation inhibitors, primary screen, cell-based, HeLa, Wee1K328M-luciferase, luminescence (AID 1321);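 further: cells exposed to compound for 20 h before luminescence read; 0% = DMSO alone and 100% = MG132 at 30 µM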
# Conditions: HeLa Luc-Wee1K328M stability, at 5 µM, stronger effect = higher value, 100% = proteasome inhibitor MG132 effect
row,SMILES,reporter increase
1,CCOc1ccc(C)cc1CN(CCCl)CCCl,inactive: -2.96%
2,COc1ccc(NC2CCN(CCc3ccccc3)CC2)c(OC)c1,inactive: -1.93%
3,Cc1ccc(OCC(C)C)c(CN(CCCl)CCCl)c1,inactive: -1.11%
4,COc1ccc(C(=O)NCC2(N3CCCCC3)CCCCC2)c(OC)c1OC,inactive: 1.11%
5,O=C(NCC1(N2CCOCC2)CCCCC1)c1cc2ccccc2o1,inactive: -1.05%
6,CCOC(=O)N1CCC(Nc2ccc(OC)cc2)CC1,inactive: -2.86%
7,N#CC1(Nc2ccccc2)CCN(Cc2ccccc2)CC1,inactive: 2.2%
8,O=C(OC1CN2CCC1CC2)C1c2ccccc2Oc2ccccc21 (centres undefined),inactive: 2.78%
9,CN(C)c1cccc(C(=O)NCC2(N3CCCCC3)CCCCC2)c1,inactive: -3.94%
10,COc1ccc(CN(CCCl)CCCl)cc1Cl,inactive: 0.51%
11,CC(C)c1ccc(NC2CCN(C(=O)OC(C)(C)C)CC2)cc1,inactive: 0.34%
12,CN1CCC(Nc2cccc(F)c2)CC1,inactive: 2.09%
13,O=C(NCC1(N2CCCCC2)CCCCC1)c1cccc([N+](=O)[O-])c1,inactive: -2.89%
14,N#CC1(Nc2ccccc2)CCN(CCc2ccccc2)CC1,inactive: -0.38%
15,CN1CCN(CCOC(=O)C(O)(c2ccccc2)c2ccccc2)CC1,inactive: -2.45%
16,COc1ccc(NC2CCN(C(=O)OC(C)(C)C)CC2)cc1,inactive: -0.38%
17,O=C(NCC1(N2CCOCC2)CCCCC1)c1cc(=O)[nH]c2ccccc12,inactive: 0.22%
18,N#Cc1ccc(C(=O)NCC2(N3CCCCC3)CCCCC2)cc1,inactive: 1.28%
19,c1ccc(CN2CCC(Nc3ccccc3)CC2)cc1,inactive: -0.32%
20,COc1ccc(C(=O)NCC2(N3CCOCC3)CCCCC2)cc1OC,inactive: 0%
21,N/C(=N\O)c1c(N)no[n+]1[O-],inactive: -0.29%
22,O=C(OC1CN2CCC1CC2)C1c2ccccc2C=Cc2ccccc21 (centres undefined),inactive: -2.12%
23,CCOc1ncccc1C(=O)NCC1(N2CCOCC2)CCCCC1,inactive: -2.15%
24,CC(C)(C)OC(=O)N1CCC(Nc2ccccc2)CC1,inactive: 5.77%
25,CCC(CO)(C(=O)OC1CN2CCC1CC2)c1ccccc1 (centres undefined),inactive: -0.69%
26,COc1cc(OC)cc(C(=O)NCC2(N3CCOCC3)CCCCC2)c1,inactive: 0.33%
27,CCCOc1ccc(C)cc1CN(CCCl)CCCl,inactive: -2.62%
28,CCN1CCC(Nc2cccc(F)c2)CC1,inactive: -1.64%
29,CN(C)c1ccc(C(=O)NCC2(N3CCCCC3)CCCCC2)cc1,inactive: -2.01%
